Bioassay records as filed in PubChem.
miR-122 sensor – blocks miR-122 activity in Huh7 sensor cells; activation (reporter increase), % at 12.5 µM; actives 0.3% (n = 340,000); AID 602342; Huh7 miR-122 Renilla luciferase sensor, 48 h; neutral wells = 0, positive control = 100;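 active = mean replicate activation score at least 90 and every replicate individually at or above 90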;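 also: higher luciferase means less miR-122 activity so hits act as miR-122 inhibitors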
Env fusion inh – inhibitors of HIV Env-mediated cell fusion; HeLa-JRFL Env/CEM21 cell fusion, luciferase; inhibition, % at 12.3 µM; actives 1.1% (n = 360,000); AID 651610;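 active = mean replicate inhibition score of at least 50 and every replicate individually at or above 50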;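 also: 0% = plate neutral controls and 100% = maraviroc near 300 nM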
Cneo AK release – Cryptococcus neoformans lysis via adenylate kinase release. lysis activity, % at 15 µM. C. neoformans lysis, adenylate kinase release luminescence, 4 h; normalised: neutral wells 0, clomiphene wells 100. actives 0.2% (n = 360,000). AID 651654;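 active = mean lysis activity across replicates of at least 80%, whatever share of replicates individually reach that level; inactive = mean lysis activity below 80%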
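Signal: Adenylate kinase release luminescence | Assay system: Log-phase Cryptococcus neoformans yeast cells | Input: Cells at 5 × 10^6 per mL | Buffer or medium: Fresh YPD growth medium | Compound: Single dose | Schedule: Static 4 h at 37 °C with compound, 1 h detection | Controls: Clomiphene | Read-out: Luminescence rise reflecting yeast cell lysis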
PGC1a acetyl inh – lowers PGC1a acetylation signal in U2OS cells | AlphaScreen anti-acetyl-lysine; with virally co-expressed GCN5 acetyltransferase | inhibition, % at 15.6 µM | actives 0.17% (n = 350,000) | AID 651687;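 active = every replicate shows inhibition of at least 40%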;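 also: 0% = neutral control wells and 100% = positive control wells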
Yeast UUG start – alters start codon recognition fidelity in yeast; AID 602363; activity score, % at 18.7 µM; 350,000 tested, 0.13% active; S. cerevisiae UUG-firefly luciferase reporter, luminescence/redox ratio;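 active means replicate mean at a twofold rise or more, about +100% in these data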;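 further: firefly luciferase made from a UUG start codon reports start codon fidelity; reporter light over untreated wells divided by growth signal over untreated wells; some hits fall short of that in this replicate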
FN deposit inh – fibronectin deposition inhibition | actives 0.086% (n = 350,000) | AH1F fibroblasts, Alexa488-fibronectin deposition fluorescence, overnight | AID 743247 | inhibition, % at 12.6 µM;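 active = mean inhibition across replicates of 30% or more, regardless of how many single replicates reach that level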;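 also: positive control wells lacked labelled fibronectin entirely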
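test system = AH1F fibroblasts assembling fluorescent fibronectin matrix | quantity = 10000 AH1F cells per well | buffer or medium = DMEM plus 2% serum, read in PBS | doses = single dose, pinned | incubation = 1 h cell attachment, overnight exposure to compound and label | detection = fluorescence at 485 nm excitation, 525 nm emission | read-out basis = inhibition from reduced deposited-fibronectin fluorescence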
* = called active by the depositor; . = no result given; [ ] = another dose, or the depositor's remark. A selection: hits, their analogues and other compounds. The true share with any hit is near 1.5%.

cpd	compound	miR-122 sensor	Env fusion inh	Cneo AK release
1	C[C@@H]1CN([C@H](C)CO)C(=O)c2cc(NC(=O)Nc3ccc4c(c3)OCO4)ccc2O[C@H]1CN(C)Cc1ccncc1	-8[16.7 µM]	58*	-1
2	C[C@@H]1CN([C@@H](C)CO)C(=O)c2cc(NC(=O)C3CCCCC3)ccc2O[C@H]1CN(C)Cc1ccc(-c2ccccc2)cc1	-7[16.7 µM]	.	1
3	C[C@H]1CN([C@@H](C)CO)C(=O)c2cc(NC(=O)Nc3ccc4c(c3)OCO4)ccc2O[C@H]1CN(C)Cc1ccncc1	-2[16.7 µM]	13[16.7 µM]	1
4	C[C@@H]1CN([C@@H](C)CO)C(=O)c2cc(NC(=O)C3CC3)ccc2O[C@H]1CN(C)CC1CCCCC1	27[16.7 µM]	0[16.7 µM]	100*
5	C[C@H](CO)N1C[C@H](C)[C@H](CN(C)CC2CCCCC2)Oc2ccc(NC(=O)Nc3ccc4c(c3)OCO4)cc2C1=O	59[16.7 µM]	28[16.7 µM]	83*
6	O=C(N[C@H]1CC[C@H](CC(=O)N2CCOCC2)O[C@H]1CO)c1ccccn1	.	.	-1
7	Cc1noc(C)c1NC(=O)Nc1ccc2c(c1)C(=O)N([C@H](C)CO)C[C@H](C)[C@H](CN(C)CC1CCCCC1)O2	-2[16.7 µM]	-10[16.7 µM]	93*
8	Cc1noc(C)c1NC(=O)Nc1ccc2c(c1)C(=O)N([C@H](C)CO)C[C@@H](C)[C@@H](CN(C)CC1CCCCC1)O2	-4[16.7 µM]	0[16.7 µM]	-2
9	COc1cccc(NC(=O)c2ccccc2F)c1	0	-91	-7
10	Oc1ccccc1-c1nnc(SCCN2CCOCC2)n1Cc1ccccc1	241*	-1	-1

cpd	PGC1a acetyl inh	Yeast UUG start	FN deposit inh
1	-1	-1	6
2	-10	4	30*
3	-5	.	11
4	17	17	.
5	.	22	.
6	-1	.	.
7	-1	19	1
8	1	-7	0
9	4	-20	3
10	4	-7	8

cpd	compound	miR-122 sensor	Env fusion inh	Cneo AK release
11	O=C(CSc1nnc(-c2ccccc2)n1Cc1ccccc1)N1CCOCC1	12	-83	3
12	O=C(CSc1nc(-c2ccccc2)c(-c2ccccc2)[nH]1)NCc1ccco1	6	70*	.
13	CC(Sc1nc2cc([N+](=O)[O-])ccc2n1-c1ccc(F)cc1)C(=O)NCc1ccc2c(c1)OCO2 (stereo not given)	-1	94*	-1
14	O=C(CSc1nc2ccccc2c(=O)n1Cc1ccc(Cl)cc1)NCc1cccs1	7	70*	0
15	COc1ccccc1-n1c(SCC(=O)NCc2ccc3c(c2)OCO3)nc2cc([N+](=O)[O-])ccc21	.	.	.
16	CCn1cc([N+](=O)[O-])c(C(=O)NCc2ccc3c(c2)OCO3)n1	2	-6	5
17	COCCNC(=O)C[C@H]1CC[C@H]2[C@@H](COc3ccc(NC(C)=O)cc3C(=O)N2C)O1	.	.	.
18	CC1=C(C(=O)N2CCOCC2)CC(CC(=O)NCCCCc2ccccc2)C(=O)N1Cc1ccc(C(C)(C)C)cc1 (stereo not given)	-3	28	1
19	C=CCn1c(SCC(=O)NCc2ccc3c(c2)OCO3)nc2scc(-c3ccccc3)c2c1=O	-4	119*	-2
20	CCCn1cc(SCC(=O)NCc2ccc3c(c2)OCO3)c2ccccc21	8	-36	3

cpd	PGC1a acetyl inh	Yeast UUG start	FN deposit inh
11	10	-11	-16
12	10	.	4
13	-8	-10	-2
14	6	-11	.
15	.	.	1
16	42*	-11	0
17	.	.	-5
18	-16	6	-4
19	2	2	0
20	-12	-15	2

The final three entries of the part before are carried over, then new ones follow.
cpd	compound	miR-122 sensor	Env fusion inh	Cneo AK release
18	CC1=C(C(=O)N2CCOCC2)CC(CC(=O)NCCCCc2ccccc2)C(=O)N1Cc1ccc(C(C)(C)C)cc1 (stereo not given)	-3	28	1
19	C=CCn1c(SCC(=O)NCc2ccc3c(c2)OCO3)nc2scc(-c3ccccc3)c2c1=O	-4	119*	-2
20	CCCn1cc(SCC(=O)NCc2ccc3c(c2)OCO3)c2ccccc21	8	-36	3
21	CCn1cc(SCC(=O)NCc2ccc3c(c2)OCO3)c2ccccc21	.	67*	-1
22	Cc1cc(C)cc(-n2c(SC(C)C(=O)NCc3ccc4c(c3)OCO4)nc3ccccc3c2=O)c1 (stereo not given)	.	64*	.
23	C=CCn1c(SCC(=O)NCc2ccco2)nc2sc3c(c2c1=O)CCC3	1	65*	-2
24	O=C(CSc1ncnc2c1cnn2-c1ccccc1)Nc1ccc2c(c1)OCO2	3	.	.
25	C/C(N)=C(/C#N)C(=O)CSc1nc2ccccc2c(=O)n1Cc1ccc(F)cc1	6	67*	0
26	C/C(N)=C(/C#N)C(=O)CSc1nc2ccccc2c(=O)n1Cc1ccc(C)cc1	2	15	.
27	Cc1cccc(-n2c(SCC(=O)NCc3ccco3)nc3ccccc3c2=O)c1	11	62*	-3

cpd	PGC1a acetyl inh	Yeast UUG start	FN deposit inh
18	-16	6	-4
19	2	2	0
20	-12	-15	2
21	.	-13	10
22	.	.	0
23	2	-3	4
24	-11	.	.
25	-5	-17	14
26	7	.	7
27	.	-13	11
